Assay results as given in paper PMC3034772 (Pharmaceutical research, 2010).

Legend:
[1] = PAMPA
[2] = In combo PAMPA-BBB model, calculated log Po in situ

Compound	obs–calc (log Po^in situ) [2]	further results
NC(=O)N1c2ccccc2C=Cc2ccccc21 [Carbamazepine]	–	log Po [1]: −4.54
CCC1(C)CC(=O)NC1=O (stereo not shown) [Ethosuximide]	–	log PABL [1]: −4.41
N[C@H](Cc1ccc(F)cc1)C(=O)O [p-F-Phenylalanine(D)]	0.1	–
N[C@@H](Cc1ccc(F)cc1)C(=O)O [p-F-Phenylalanine(L)]	1.4 and 1.5	–

Values joined by “and” are separate entries in the source; they are usually repeats but may differ in a detail not shown here. Identical values can stand only once.
